Reference: patent US20040219217A1, “Conjugates of polysaccharide polymers of natural origin” (priority 2001, published 2004)

Experiments:
[1] = dust of living environments equipped with the fabrics
[2] = household detergents, gas chromatographic determination of benzyl benzoate
[3] = normal environmental conditions

Substance | Quantity of acaricide per 100 g dust [1] | (1) Percentage of acaricide released into the washing liquor after washing with surfactants [2] [%] | (2) Percentage of acaricide released after exposure to air for 6 months (determined through measurement of the residual acaricide still present on the fibre) [3] [%]
cotton-CH2—NH-lys-NH—CO-PABA-benzyl benzoate [III.B.2.1.2.] | Absent | 18.0 | 14.0
cotton-CH2—NH-polylys-(NH—CO-PABA-benzylbenzoate)n [III.B.2.2.2.] | Absent | 2.0 | 0
cotton-CH═N-lys-NH—CO-PABA-benzylbenzoate [III.B.2.1.1.] | Significant traces | 60.0 | 42.0
cotton-CH═N-polylys-(NH—CO-PABA-benzylbenzoate)n [III.B.2.2.1.] | Traces | 28.0 | 22.0
